# Assay results from PubChem BioAssay AID894 (National Center for Advancing Translational Sciences (NCATS), 2007).
# The chains behind the UniProt entries cited, without tags or fusion partners. Where a name states a change or a piece, a line headed by the entry shows the natural chain unless it says otherwise.
# UniProt P15428: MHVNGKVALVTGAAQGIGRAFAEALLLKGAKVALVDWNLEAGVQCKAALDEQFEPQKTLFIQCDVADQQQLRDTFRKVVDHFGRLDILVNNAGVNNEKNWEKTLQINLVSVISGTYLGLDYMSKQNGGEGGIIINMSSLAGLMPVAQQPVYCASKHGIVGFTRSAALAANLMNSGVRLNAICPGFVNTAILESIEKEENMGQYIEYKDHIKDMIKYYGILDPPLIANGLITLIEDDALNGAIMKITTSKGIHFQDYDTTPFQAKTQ
# This is a selection; strong and weak results do not stand in their true shares. Records with an inconclusive call do not appear. Calls of active or inactive are those of the source. Calls follow the shape of the dose curve; as a rule, active = well fitted inhibition curve with a large enough effect (not every such curve was filed as active); inconclusive = small, poorly fitted or top-dose-only effect, or another doubt; inactive = no such curve, though single readings can be large or run the other way.
# Target: 15-hydroxyprostaglandin dehydrogenase [NAD(+)] (Homo sapiens) (UniProt P15428)
# Assay: qHTS Assay for Inhibitors of HPGD (15-Hydroxyprostaglandin Dehydrogenase)
# Details: purified HPGD, NADH fluorescence kinetic, PGE2 substrate
# Potency is read from the fitted curve at half-maximal effect.
row,Compound,Potency
1,N#Cc1ccccc1CSc1nc2ncc(Br)cc2[nH]1,active: 224 nM
2,CC1(COc2ccc(C[C@H]3SC(=O)NC3=O)cc2)CCCCC1,active: 4470 nM
